The test system of test [1] is A673 (human Ewing's sarcoma) tumors. The settings on record: mouse, in vivo.
The target in another test is VEGFR2 (Homo sapiens, UniProt P35968). Put plainly: GU40C4 cell surface binding assay (biotinylated peptoid, streptavidin quantum dots). Type of test: cell-based. On the set-up: allow the library to be screened against the full-length receptor in as natural an environment as possible; host or cells: PAE/KDR (porcine aortic endothelial cells expressing human KDR). The settings on record: VEGFR2 overexpressing cells. As to the method:
GU40C4 cell surface binding assay. Different types of cells (PAE/KDR, PAE, Hela, HEK-293, MCF-7, HFF) were grown on each well of chamber slides (Nalge Nunc International) (10,000 cells/chamber) overnight. Washed, and fixed cells with 3.7% formaldehyde and blocked with Startingblock blocking buffer. Each chamber was treated (except the control) with 75 nm biotinylated GU40C4 peptoid followed by Qdot® 655 streptavidin conjugate (Invitrogen). After the final washing, cells were mounted by ProLong® Gold antifade reagent with DAPI (Invitrogen) and visualized under DAPI filter of the fluorescence microscope.
Specificity of the GU40C4-VEGFR2 interaction on the cell surface. To evaluate the specificity of the high affinity dimeric peptoid for VEGFR2, various cell types were incubated with biotinylated GU40C4 peptoid and association of the small molecule with the cells was probed using streptavidin conjugated red quantum dots (Qtracker 655) (FIGS. 5A-H). The DAPI-stained nuclei are shown in blue. GU40C4 binding to PAE/KDR cells that overexpress VEGFR2 was seen clearly (FIG. 5A), as expected. […]
An important question is whether the peptoid is able to recognize VEGFR2 on the surface of cells when the receptor is expressed at native levels. […] Of these, only MCF-7 expresses significant quantities of the VEGFR2. […]

Amino acid sequences for entries named in this document (tags omitted). Residues count along the entry.
UniProt P35968, 20-1356: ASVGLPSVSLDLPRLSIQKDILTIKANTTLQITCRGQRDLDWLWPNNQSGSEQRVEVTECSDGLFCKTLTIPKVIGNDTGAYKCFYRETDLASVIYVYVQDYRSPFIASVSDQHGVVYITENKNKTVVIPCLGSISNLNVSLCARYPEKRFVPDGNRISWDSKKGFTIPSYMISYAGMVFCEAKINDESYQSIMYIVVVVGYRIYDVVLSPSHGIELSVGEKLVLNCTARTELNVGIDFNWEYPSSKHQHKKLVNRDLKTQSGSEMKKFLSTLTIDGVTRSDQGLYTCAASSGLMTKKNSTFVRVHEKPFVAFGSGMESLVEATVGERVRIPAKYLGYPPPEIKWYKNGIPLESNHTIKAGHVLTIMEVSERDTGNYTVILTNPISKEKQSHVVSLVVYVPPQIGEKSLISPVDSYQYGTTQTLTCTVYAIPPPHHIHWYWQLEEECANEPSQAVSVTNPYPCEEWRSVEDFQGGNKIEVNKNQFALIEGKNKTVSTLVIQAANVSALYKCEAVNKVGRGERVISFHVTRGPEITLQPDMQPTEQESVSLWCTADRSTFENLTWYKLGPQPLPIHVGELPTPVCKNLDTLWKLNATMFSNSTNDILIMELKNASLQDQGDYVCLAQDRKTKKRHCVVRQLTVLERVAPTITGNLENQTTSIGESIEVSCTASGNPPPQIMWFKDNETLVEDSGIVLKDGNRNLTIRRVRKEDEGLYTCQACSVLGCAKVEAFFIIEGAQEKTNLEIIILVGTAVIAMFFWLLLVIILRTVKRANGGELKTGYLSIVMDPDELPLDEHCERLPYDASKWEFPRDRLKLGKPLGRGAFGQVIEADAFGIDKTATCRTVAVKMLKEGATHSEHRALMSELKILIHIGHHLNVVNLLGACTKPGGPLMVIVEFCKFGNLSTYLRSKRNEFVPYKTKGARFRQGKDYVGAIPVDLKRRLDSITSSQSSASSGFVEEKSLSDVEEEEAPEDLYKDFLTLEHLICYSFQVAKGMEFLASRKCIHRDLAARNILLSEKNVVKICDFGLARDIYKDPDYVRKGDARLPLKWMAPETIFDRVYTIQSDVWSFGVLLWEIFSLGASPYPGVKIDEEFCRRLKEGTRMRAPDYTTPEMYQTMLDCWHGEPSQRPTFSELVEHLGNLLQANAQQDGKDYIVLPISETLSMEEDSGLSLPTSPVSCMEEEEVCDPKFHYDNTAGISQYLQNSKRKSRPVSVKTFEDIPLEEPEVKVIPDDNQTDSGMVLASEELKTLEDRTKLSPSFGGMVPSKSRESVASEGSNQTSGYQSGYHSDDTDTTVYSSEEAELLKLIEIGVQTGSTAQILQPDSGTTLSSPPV

Experimental findings from patent US8334239B2, “High affinity VEGF-receptor antagonists” (The Board of Regents of the University of Texas System, priority 2007, dated 2012) are described below.

Positions of bridges follow the written chain, without caps; N, C: chain ends. Non-standard residues stand in square brackets, D forms with d. Residues, ends and D or L forms follow the SMILES beside them. Chains are numbered I, II in the order given. *: point of attachment. Fluorescein(5-Mal) = O=C1OC2(c3ccc(O)cc3Oc3cc(O)ccc32)c2ccc(N3C(=O)CC(*)C3=O)cc21; Gly(N-piperonyl) = O=C(O)CNCc1ccc2c(c1)OCO2; Nrpe = C[C@@H](NCC(=O)O)c1ccccc1; Nleu = CC(C)CNCC(=O)O; Nlys = NCCCCNCC(=O)O; Ahx = NCCCCCC(=O)O; βAla = NCCC(=O)O

Consider `CC(C)CN(CC(=O)N(CCCCN)CC(=O)N(CC(=O)N(CC(=O)N(CCCCN)CC(=O)N(CC(=O)N(CCCCN)CC(=O)N(CCCCN)CC(=O)NCCCCCC(=O)NCCC(=O)N[C@@H](CCCCNC(=O)CN(CCCCN)C(=O)CN(CCCCN)C(=O)CN(CC(C)C)C(=O)CN(CCCCN)C(=O)CN(Cc1ccc2c(c1)OCO2)C(=O)CN(C(=O)CN(CCCCN)C(=O)CN(CC(C)C)C(=O)CNCCCCN)[C@H](C)c1ccccc1)C(=O)N[C@@H](CSC1CC(=O)N(c2ccc3c(c2)C(=O)OC32c3ccc(O)cc3Oc3cc(O)ccc32)C1=O)C(N)=O)CC(C)C)Cc1ccc2c(c1)OCO2)[C@H](C)c1ccccc1)C(=O)CNCCCCN` (stereo partly drawn) [GU40C4] (I: H-[Nlys][Nleu][Nlys][Nrpe][Gly(N-piperonyl)][Nlys][Nleu][Nlys][Nlys][Ahx][βAla]KC(Fluorescein(5-Mal))-NH2 / II: H-[Nlys][Nleu][Nlys][Nrpe][Gly(N-piperonyl)][Nlys][Nleu][Nlys][Nlys]; amide I:12-II:C), for which the “reduction of microvessel density” value in test [1] is reported as “approximately 50%”. Moreover, in test [1] (sc), the tumor growth entry is “reduced tumor growth rate and significantly smaller tumors”. On VEGFR2, the “binding to PAE/KDR cells” value is reported as “seen clearly”.
